Measured values taken from patent US8216782B2, “PTTG1 as a biomarker for cancer treatment” (Cedars-Sinai Medical Center, priority 2008, dated 2012).

Test system: PTTG1−/− HCT116 tumors
Test: Subcutaneous tumor implant in nude mice
Conditions: 50 mg/kg i.p. daily, measured at day 17

O=C(CCCCCCC(=O)Nc1ccccc1)NO [SAHA, suberoylanilide hydroxamic acid]
tumor volume: 672±334 mm^3
